scFv variants of Ab-14 (light chain) against a SARS-CoV-2 spike peptide

Values reported by Li et al. 2023, doi:10.1038/s41467-023-39022-2 (FLAb copy).

The target is the same throughout: PDVDLGDISGINAS, from the HR2 region of SARS-CoV-2 spike.

Each scFv is VH, a (GGGGS)3 linker, VL, as in the parent Ab-14, and differs from it in the CDRs of the light chain only.
VH: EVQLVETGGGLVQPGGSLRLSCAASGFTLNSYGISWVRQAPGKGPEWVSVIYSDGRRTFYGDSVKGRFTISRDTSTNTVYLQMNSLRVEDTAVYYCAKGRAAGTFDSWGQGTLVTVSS
VL: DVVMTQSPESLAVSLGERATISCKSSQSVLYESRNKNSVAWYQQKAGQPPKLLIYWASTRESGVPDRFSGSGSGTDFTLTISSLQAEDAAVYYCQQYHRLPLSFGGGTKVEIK

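The parent was found by panning a naive human phage display library on the peptide. These sequences belong to a second round, designed from the earlier measurements on random variants of the parent. Group labels follow the data file (Ctrl: baseline library sampled from a position-specific scoring matrix, with some repeated check sequences; GP: Gaussian process model; Gen: genetic algorithm; a sequence that several methods proposed may carry one label only). The scFvs were displayed on barcoded MATa yeast, the peptide on MATalpha yeast. The frequency of each diploid, read from paired DNA barcodes, reflects how well the two displayed proteins bind. Each replicate has its own calibration line, from reference interactions of the BCL2 family. There are six technical replicates.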

Each variant is given by its three light chain CDRs, as the data file delimits them; those of the parent are KSSQSVLYESRNKNSVA, WASTRES, QQYHRLPLS. The read-out is the apparent dissociation constant on a log10 scale (nM): the lower, the stronger. A mean of the replicates is given; it leaves out those without a signal. A pair that was not seen in that replicate is written "ND"; this usually means weak binding, but a binder can also be missed. The authors averaged sequences with at least three values out of six and counted those with two or fewer as poor binders. Nonspecific signal, from three strains lacking the peptide, appeared in 4% of pairings of all light chain designs, centred on 2.64 (5% of these signals below 1.59); values are not corrected for it. The control count says in how many pairings with the empty strains this scFv gave a signal. Some sequences occur more than once in the pool; their replicates are listed entry by entry, parted by semicolons. The parent sequence was in this pool as ten entries: three were never detected, three once, and four in most replicates, with averages from 0.34 to 2.37. Values of this round are not directly comparable with the first-round values of the same sequences.

For KSSQSVPYESRNKNSVA / NASTRES / QQYHRLPLS [Ctrl+GP_Gen], the assay gave 0.05, -0.12, 0.10, -0.31, -0.08, 0.01; 0.87, 1.23, 0.96, 1.37, 1.32, 1.06 (mean 0.54; controls 2 of 36).
For KLSQSSLYESRNKNSVA / WASTRES / QQYGRVPLS [Ctrl], the assay gave ND, ND, ND, ND, ND, ND (controls 0 of 18).
For VSSQSTLEESRNKNSVA / WASTRES / QQYFRLELW [Ctrl], the assay gave ND, ND, ND, ND, ND, ND (controls 0 of 18).
For KFSQSVLYESRNKNGVA / WASTRES / QQYHRLPLS [Ctrl], the assay gave 2.16, 1.02, 0.84, 0.96, 1.05, 1.55 (mean 1.26; controls 1 of 18).
For KSSQSVLQESRNKNSVA / WASTRES / KQYHRLPLS [Ctrl], the assay gave 1.67, 2.11, 2.15, 2.76, ND, 2.87 (mean 2.31; controls 0 of 18).
For KSSQSVLYESRNKNSVA / WASTREQ / QAQHRLPLS [Ctrl], the assay gave ND, ND, ND, 1.84, ND, ND (controls 1 of 18).
For KSSQSVLYESGNLNSVA / AASTRES / QQYHILPLS [Ctrl], the assay gave ND, 0.91, 1.25, 1.29, 1.38, 1.62 (mean 1.29; controls 0 of 18).
For KSSQSVLYESGNKNSVA / KASTRES / QQYHRTPLE [Ctrl], the assay gave 2.37, 2.77, ND, 3.53, ND, ND (mean 2.89; controls 2 of 18).
For KFSQSVLYESRNKNSVA / WASTRES / QRYHRLPLS [Ctrl], the assay gave 2.61, 2.98, ND, 2.91, 2.22, 2.20 (mean 2.58; controls 0 of 18).
For KSSQSHLEESRNKNSVA / WASTRES / QQYHRLPLS [Ctrl], the assay gave ND, ND, 1.92, 2.73, 1.79, 1.84 (mean 2.07; controls 0 of 18).
For KLSQSVLYCSRNKNSVA / WASTRES / QQYHILPLS [Ctrl], the assay gave ND, ND, ND, ND, ND, ND (controls 0 of 18).
For KISQSVLYESTNKNSVA / AASIRES / QQCRRLPLS [Ctrl], the assay gave 2.36, 2.73, 3.42, 1.92, 1.54, 2.01 (mean 2.33; controls 0 of 18).
For KSSQSVLYESRNTNSVA / WASERES / QDYHDLPLS [Ctrl], the assay gave ND, 2.26, ND, 1.73, 2.80, 3.66 (mean 2.61; controls 0 of 18).
For KLSPSGLYESRNKNSVA / WASTRVS / QQYHRLPLS [Ctrl], the assay gave 1.46, 0.56, 2.02, 1.35, 0.44, 1.79 (mean 1.27; controls 1 of 18).
For KSSQSVLYESRNKNGVA / WASTRVS / QQYHRLPLS [Ctrl], the assay gave 1.97, 1.72, 2.49, ND, ND, 1.85 (mean 2.01; controls 1 of 18).
For KSSHSVQYESRNKNHVA / QASTRES / QQYHRLPLS [Ctrl], the assay gave 0.85, 1.91, 1.44, 1.75, 2.01, 1.53 (mean 1.58; controls 0 of 18).
For KSSQSVLYGSRNANSVA / WASTRES / QQYHRLPLS [Ctrl], the assay gave ND, 2.02, 1.78, 2.71, ND, ND (mean 2.17; controls 0 of 18).
For KVSQSLLYEQRNKNSVA / WASERES / QQYHRLPLS [Ctrl], the assay gave 0.68, 0.29, 0.54, 0.53, 0.92, 0.75 (mean 0.62; controls 1 of 18).
For KSSQSVLYQSSNKNSVA / WASTRES / QQYMRLPLS [Ctrl], the assay gave ND, ND, ND, 0.76, 1.00, 0.75 (mean 0.83; controls 0 of 18).
For KSSQSNLMESRNKNSVA / WASTRES / QQYHRLPLS [Ctrl], the assay gave 1.48, 1.95, 2.27, 2.51, 1.92, 3.67 (mean 2.30; controls 0 of 18).
For KSSQSVLYESTNKNSVA / WASTRES / QQYHRLPLS [Ctrl], the assay gave 1.36, 1.37, 1.36, 1.27, 1.30, 0.82 (mean 1.25; controls 1 of 18).
For KSSQSVLYESRTKNSVA / WASTRES / QTEHRLPLS [Ctrl], the assay gave ND, ND, ND, ND, ND, ND (controls 0 of 18).
For KSSQSNLYESTNKNSVA / WASERES / QQYHRLPLL [Ctrl], the assay gave 1.07, 1.52, 1.67, 1.38, 1.08, 1.16 (mean 1.31; controls 0 of 18).
For KSSQSVLYDSRNKNSVA / WASTRES / QQYHRLPLF [Ctrl], the assay gave ND, ND, ND, 2.39, 2.57, 2.18 (mean 2.38; controls 1 of 18).
For RSSQSHLYESRNKNSVA / WASTRES / QQYSRLPLS [Ctrl], the assay gave 0.65, 1.01, 1.30, 0.43, 1.15, 0.88 (mean 0.90; controls 0 of 18).
For KVSQSVFYEDRNKNSVA / NASTRES / QQYHRLPLS [Ctrl], the assay gave 0.48, 0.14, 0.22, 0.18, 0.21, 0.46 (mean 0.28; controls 3 of 18).
For KVSQSVLYESRNKNSVA / QASTRES / QQYHRLPLS [Ctrl+GP_Gen], the assay gave -0.48, -0.82, -0.66, -0.95, -0.68, -0.68; 0.11, 0.13, -0.06, -0.06, -0.12, 0.04 (mean -0.35; controls 0 of 36).
For KSSQSGLLESRNKNSVA / WASTRES / QQYHRLPLS [Ctrl], the assay gave 2.02, 1.30, 1.74, 1.64, 1.87, 1.47 (mean 1.67; controls 0 of 18).
For KVSQSVLYEFRNKNSVA / SASTREC / QQYHRLPLS [Ctrl], the assay gave 0.41, 0.04, 0.01, 0.04, 0.40, 0.49 (mean 0.23; controls 1 of 18).
For KSSQSVLYESDNKNSVA / QASTRIV / QAYHRLPLS [Ctrl], the assay gave 1.03, 1.19, 1.15, 0.99, 0.94, 1.02 (mean 1.05; controls 0 of 18).
For KSSQSVLKDFRNKNSVA / DASTRES / QQYHRLPLS [Ctrl], the assay gave 0.28, 0.38, 0.15, 0.20, 0.33, 0.29 (mean 0.27; controls 0 of 18).
For KSSQSVLYEQRNGNQVA / WASTRES / QQCHRLPFS [Ctrl], the assay gave ND, ND, ND, ND, ND, ND (controls 0 of 18).
For KDSQSVLYESRNKNSVA / EASTRES / QQYHRLPLS [Ctrl], the assay gave 0.24, 0.34, 0.09, -0.03, 0.16, 0.11 (mean 0.15; controls 3 of 18).
For KSSQSVLYLSRNKNSVA / WASTRES / QQQHRLPLS [Ctrl], the assay gave ND, ND, ND, 4.09, ND, ND (controls 1 of 18).
For KSSQSVFYDSRNKNSVA / WASTRIS / QQYHRLPLS [Ctrl], the assay gave ND, ND, ND, ND, 1.50, 2.29 (mean 1.89; controls 0 of 18).

Extract of 5 entries:

CDR-L1	CDR-L2	CDR-L3	group	log10 Kd (nM) by replicate	mean, log10 nM	control signals
KSSQSVLYESRNKNSVA	WASTREQ	QAQHRLPLS	Ctrl	ND, ND, ND, 1.84, ND, ND	1.84	1/18
KSSQSVLYESRNKNGVA	WASTRVS	QQYHRLPLS	Ctrl	1.97, 1.72, 2.49, ND, ND, 1.85	2.01	1/18
KSSQSVLYLSRNKNSVA	WASTRES	QQQHRLPLS	Ctrl	ND, ND, ND, 4.09, ND, ND	4.09	1/18
KSSQSVLKDFRNKNSVA	DASTRES	QQYHRLPLS	Ctrl	0.28, 0.38, 0.15, 0.20, 0.33, 0.29	0.27	0/18
KSSQSVLYESDNKNSVA	QASTRIV	QAYHRLPLS	Ctrl	1.03, 1.19, 1.15, 0.99, 0.94, 1.02	1.05	0/18